The numbers were not newly measured in patent US7179627B2, “Cyclooxygenase variants and methods of use” (Brigham Young University, priority 2001, dated 2007), which cites them from elsewhere.

The conditions of the data set: under physiological conditions; cited from earlier work.

`CC(=O)Nc1ccc(O)cc1` [Acetaminophen]: the steady-state concentration result was “approximately 100 μM”.
